Only some compounds are listed: those with a hit (about 13% of all), similar ones and a draw of the others.
Lamin A splicing: LMNA splicing modulation; HeLa LMNA splicing GFP/RFP minigene ratio, 48 h; Potency, µM (doses to about 46.1 µM), inactives show top-dose ratio change, negative = inhibition, actives largely listed as inhibitors; 0.01% of 200,000 active; active = well fitted inhibition curve with a large enough effect in the signal ratio, with a control signal flat, not every such curve was filed as active; inconclusive = small, poorly fitted or top-dose-only effect, or effect the other way, or a change in a side signal; the % refers to the signal ratio; note: potency is the fitted concentration of half-maximal effect; % is set by controls: 0 for no effect and ±100 for the full control effect
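Read-out is the ratio of GFP to DsRed2 object intensity, acquired by 488 nm laser-scanning cytometry on HeLa lamin A-EGFP minigene reporter cells. Compound incubation 48 hrs at 37 °C in Opti-MEM with 2% FBS; DMSO 0.5% final.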
KDM4E inh: JMJD2E (human) inhibition; B2RXH2; JMJD2E catalytic domain, FDH-coupled NADH fluorescence (FDH is formaldehyde dehydrogenase); Potency, µM (highest dose often 57.1 µM), without a hit: at the top dose activity change, negative = inhibition, hits mostly inhibitors; 1.6% of 230,000 active; AID 2147; active = well fitted inhibition curve with a large enough effect, not every such curve was filed as active; inconclusive = small, poorly fitted or top-dose-only effect, or another doubt; inactive = no such curve, though single readings can be large or run the other way;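 note: potency is the fitted concentration of half-maximal effect; 0% = wells with enzyme and -100% = buffer wells without enzyme; nearly all actives have a fitted effect of over 50% in size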
ALDH1A1 inh: inhibitors of human aldehyde dehydrogenase 1A1. 7.3% of 220,000 active. AID 1030. Purified ALDH1A1, NADH fluorescence, propionaldehyde substrate. P00352. Potency, µM (highest dose often 75.3 µM), for inactives: at the highest dose activity, negative = inhibition, usual class: inhibitors; active = well fitted inhibition curve with a large enough effect, not every such curve was filed as active; inconclusive = small, poorly fitted or top-dose-only effect, or another doubt; inactive = no such curve, though single readings can be large or run the other way;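 note: potency is the fitted concentration of half-maximal effect; plate controls were no enzyme wells and a reference inhibitor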
G9a inh: blocks human histone lysine methyltransferase G9a; G9a H3K9 monomethylation, AlphaScreen, 2 h; Potency, µM (titrated, usually from 102 µM), without a hit: at the highest dose activity, negative = inhibition, actives largely listed as inhibitors; Q96KQ7; 8.8% of 350,000 active; AID 504332; note: potency is the fitted concentration of half-maximal effect; % is set by controls: 0 for no effect and ±100 for the full control effect; nearly all actives have a fitted effect of over 75% in size
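G9a (20 nM) was preincubated 15 min with compound, then reacted 2 h at room temperature with 500 nM biotin-H3K9 peptide and 20 µM SAM. Monomethyl-H3K9 detected by AlphaScreen using anti-H3K9me1 antibody.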
miR-21 reporter: miR-21 reporter, rising signal. 340,000 tested, under 10 active. Potency, µM (highest dose often 38.3 µM), for the others: at the highest dose reporter change, positive = more light. HeLa miR-21 FLuc reporter, luciferase, 48 h. AID 2288; active = well fitted rising curve with a large enough effect; inconclusive = small, poorly fitted or top-dose-only effect; inactive = no such curve, though single readings can be large or run the other way;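 further: % of control where 0% means no effect; miR-21 action dims this reporter so a rising signal means less miR-21 action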
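HeLa miR-21-FLuc reporter line, endogenous miR-21; 2000 cells/well in DMEM/10% FBS; compound titration up to ~40uM final, 48 h, 37 degree Celsius; luciferase detection reagent, 15 min lysis, CCD luminescence.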
Sfp inh: Sfp phosphopantetheinyl transferase inhibition. 3.5% of 310,000 active. AID 1490. Potency, µM, inactives show max response, negative = inhibition, actives largely listed as inhibitors. Biochemical Sfp PPTase activity, qHTS; active = well fitted inhibition curve with a large enough effect; inconclusive = small, poorly fitted or top-dose-only effect, or another doubt; inactive = no such curve, though single readings can be large or run the other way;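 note: the enzyme is Sfp with the accession as filed and its product quenches rhodamine fluorescence; potency is the fitted concentration of half-maximal effect; 0% = enzyme reaction without inhibitor and -100% = no enzyme wells; top concentration of the series not given in the record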
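With Hepes-Na pH 7.6 buffer containing 10 mM MgCl2, Sfp (15 nM) modified BHQ-2-YbbR (12.5 uM) using rhodamine-CoA (5 uM). Two reads 30 minutes apart at 525/598 nm yielded each well's rate.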
Numbers without * were called inactive; ? = inconclusive; . = not tested or not shown; ! = a repeat was not active; [ ] = dose if it differs, or a comment. Unless noted, calls come from the whole dose curve; as a rule, active = well fitted curve in the direction sought with a large enough effect; inconclusive = small, poorly fitted or top-dose-only effect, or another doubt; inactive = no such curve, though single readings can be large; an effect the other way counts as inactive or inconclusive.

SMILES	Lamin A splicing	KDM4E inh	ALDH1A1 inh	G9a inh	miR-21 reporter	Sfp inh
CCOC(=O)Cn1c2c(c(=N)c3c1CCC3)CCCC2	?	3.5%	16.4%	22.7%	13.6%	-5.4%
CCCCCCCn1c2c(c(=N)c3ccccc31)CCC2	.	-19.8%	?	.	?	50.1µM*
CCCn1c2c(c(=N)c3c1CCC3)CCC2	.	-2.6%	.	50.1µM*	23.5%	-0.1%
O=C(O)CCn1c2c(c3ccccc31)CCCC2	1.3%	?	?	14.5%[12.7 µM]	-0.4%	8.3%
O=C(Nc1cccc(C(=O)OCc2cc(=O)n3c4c(sc3n2)CCCC4)c1)c1cccc(F)c1	?	.	.	1.5%[12.7 µM]	-0.4%	.
Cc1ccc(C)c(Nc2nn3c(=O)c4ccc(C(=O)N(C)Cc5ccccc5)cc4nc3s2)c1	.	.	.	-29.1%[59 µM]	-0.4%	.
Cc1ccc(CCC(=O)Nc2ccccc2C(=O)O)o1	.	.	.	-49.2%	-59.0%	-2.1%
COc1ccc(N2CCN(C(=O)c3cc(-c4cccs4)nc4ccccc34)CC2)cc1	-29.5%[46 µM]	?	?	22.4µM*	-1.2%	9.9%
COc1ccc(N2CCN(C(=O)c3ccc(SC)cc3OC)CC2)cc1	.	-10.7%	-10.5%	28.2µM*	0.0%	-14.8%
COc1ccc(N2CCN(C(=O)c3csc4ccccc34)CC2)cc1	3.5%	-0.6%	-5.9%	20µM*	-6.6%	15.0%
COc1ccc(Nc2ncc(C(=O)N3CCN(c4ccc(OC)cc4)CC3)c3ccccc23)cc1	.	.	.	17.8µM*	?	.
COc1cc(SC)ccc1C(=O)N1CCN(c2ccccc2F)CC1	7.5%[46 µM]	-0.3%	0.7%	-0.9%	1.3%	21.0%
Cc1ccc(C)c(NC(=O)CN(C)C(=O)c2nn(C)c(=O)c3ccccc23)c1	.	0.1%	-5.1%	7.3%	11.9%	17.3%
COCCCNC(=O)C1CCN(c2cc(C)nc3c(-c4ccc(OC)c(OC)c4)c(C)nn23)CC1	.	.	.	-33.6%[59 µM]	15.1%	.
COC(=O)c1ccc(CN(C(C)=O)c2ccccc2)o1	-0.2%	-4.4%	20µM*	?	-0.6%	8.2%
NC(=S)Nc1nc2ccccc2s1	.	1.1%	?	55.0%	-39.9%	50.1µM*
Cc1ccc(NC(=S)c2nc3ccccc3s2)cc1	6.9%	2.5%	2.2%	22.4µM*	-35.5%	14.3%
COC(=O)c1nc(NC(=S)NC(=O)c2cccs2)sc1C	.	.	.	50.1µM*	-31.8%	-21.2%
O=C(NC(=S)Nc1nc2ccccc2s1)c1cccs1	?	-0.7%	3.55µM*	9.5%[59 µM]	-66.2%	-8.4%
COCC(=O)Nc1nc2ccccc2s1	16.4%	12.6%	16.0%	10.3%[59 µM]	-43.4%	11.9%
CCc1ccc(-c2nc(NC(=S)NC(=O)c3cccs3)sc2C)cc1	8.9%	-2.0%	?	-2.8%[59 µM]	-0.6%	0.4%
NC(N)=NC(=O)Cc1c(Cl)cccc1Cl	?	-0.9%	4.8%	12.6µM*!	7.5%	89.1µM*!
O=C(CCCCCNC(=S)Nc1ccc(Cl)cc1)C[N+](=O)[O-]	6.1%[46 µM]	1.7%	10µM*	?	-7.7%	-6.2%
OCCCNC(=S)Nc1ccc(Nc2ccccc2)cc1	?	1.4%	-1.3%	?	-0.9%	3.4%
CCCCNC(=S)Nc1ccc([N+](=O)[O-])cc1	?	0.9%	?	-16.0%	25.3%	8.9%
O=C(CCCCCNC(=S)Nc1ccccc1)C[N+](=O)[O-]	.	7.2%	3.55µM*	44.7µM*	-3.8%	-27.7%
O=C(O)CCCCCNC(=O)c1ccc(Br)cc1	9.2%	-10.6%	-1.2%	50.1µM*	0.3%	1.6%
COc1ccc(NC(=S)NCCCCCC(=O)C[N+](=O)[O-])cc1	15.1%[46 µM]	-2.3%	2.51µM*	22.4µM*	-6.0%	-33.8%
COc1ccc(NC(=O)CCCCC(=O)Nc2ccc(OC)cc2)cc1	.	.	.	?	-2.7%	15.0%
O=C(CCCCCNC(=O)c1ccccc1)C[N+](=O)[O-]	-17.3%[46 µM]	-2.6%	2.24µM*	18.9%[0.0925 µM]	-2.3%	13.6%
O=c1cnc2cnc(Nc3ccccc3)nc2n1Cc1cccs1	?	.	0.7%	8.4%[0.501 µM]	.	0.1%
Cc1c(Cl)c(-c2n[nH]c(=S)n2-c2ccc(F)cc2)nn1C	-0.7%	-7.0%	?	?	-19.9%	-10.1%
CCCCn1c(-c2nn(C)c(C)c2Cl)n[nH]c1=S	9.7%	-3.5%	-6.4%	11.2µM*	-2.8%	7.5%
Cc1c(Cl)c(-c2n[nH]c(=S)n2CC(C)C)nn1C	?	5.3%	?	35.5µM*	-1.1%	-10.5%
COc1cc2c(cc1OC)C(C)N(C(=O)c1ccc(Br)o1)CC2 (stereo not given)	?	-5.7%	4.9%	20.6%[59 µM]	18.1%	6.1%
C/C=C(\C)CN1CCc2cc(OC)c(OC)cc2C1	2.9%	-6.0%	7.1%	-31.6%[59 µM]	-1.3%	9.3%
COc1cc2c(cc1OC)CN(CCC(=O)c1ccc(Br)cc1)CC2	-14.1%[9.22 µM]	?	0.199µM*	14.1µM*	2.3%	-7.7%
CCOC(=O)N1CCN(C(=O)Cc2ccc(Cl)cc2)CC1	-5.2%	0.9%	-5.0%	-31.5%	-15.7%	18.9%
COc1cc2c(cc1OC)CN(C(=O)c1ccc(Br)o1)CC2	.	?	.	50.1µM*	-14.3%	14.2%
CCOC(=O)N1CCN(CCC(=O)c2ccc(Cl)cc2)CC1	?	-18.1%	0.0891µM*	?	-3.8%	50.1µM*
CCOC(=O)N1CCN(CCC(=O)c2ccc(Br)cc2)CC1	.	.	.	3.98µM*	0.6%	50.1µM*
COc1ccc2c(c1)NC(c1ccc(OCC(C)C)cc1)=NC(c1ccncc1)=N2	.	.	.	-29.5%[59 µM]	3.4%	.
CC1CCN(C(=O)C(=O)Nc2sc3c(c2C(N)=O)CC(C)(C)OC3)CC1	.	.	.	17.0%	-1.9%	19.7%
CC1(C)OC2CC(=O)OCC23C1CC(=O)C1(C)C3CC[C@@]2(C)[C@H](c3ccoc3)OC(=O)C3OC312 (stereo not given in full)	.	.	11.8%	15.2%[59 µM]	.	6.9%
CCCC(=O)OCc1cnc(C)c2oc(=O)c(C(=O)Nc3ccccc3)cc12	12.8%[46 µM]	.	.	4.5%[59 µM]	1.2%	.
N#CCCN(Cc1cccnc1)C(=S)NC(=O)C1CC1	.	-0.8%	11.1%	?	-0.2%	?
COCCN(CCOC)c1nc(C)nc2c1nc(-c1ccccc1)n2CCCN1CCCCC1C (stereo not given)	.	?	?	.	.	24.0%
O=C(OCCN1CCCCC1)c1ccc(Cl)cc1	5.8%	6.1%	9.7%	-2.8%[12.7 µM]	0.2%	89.1µM*
CCOC(=O)N1CCN(CCC(=O)c2ccc(OC)cc2)CC1	.	-3.4%	0.708µM*	10µM*	0.3%	-2.3%
O=C(O)C1Nc2c(O)cc(Cl)c([N+](=O)[O-])c2C2C=CCC12 (stereo not given)	?	7.94µM*	12.6µM*	2.82µM*	6.5%	56.2µM*
Cc1ccc2ncccc2c1NS(=O)(=O)c1ccccc1	?	-21.0%	31.6µM*	?	-8.4%	2.0%

Record cards, as listed above:
CCOC(=O)N1CCN(CCC(=O)c2ccc(Br)cc2)CC1 across the screens: Lamin A splicing: .; KDM4E inh: .; ALDH1A1 inh: .; G9a inh: 3.98µM*; miR-21 reporter: 0.6%; Sfp inh: 50.1µM*
CCCC(=O)OCc1cnc(C)c2oc(=O)c(C(=O)Nc3ccccc3)cc12 across the screens: Lamin A splicing: 12.8%[46 µM]; KDM4E inh: .; ALDH1A1 inh: .; G9a inh: 4.5%[59 µM]; miR-21 reporter: 1.2%; Sfp inh: .
O=C(OCCN1CCCCC1)c1ccc(Cl)cc1 across the screens: Lamin A splicing: 5.8%; KDM4E inh: 6.1%; ALDH1A1 inh: 9.7%; G9a inh: -2.8%[12.7 µM]; miR-21 reporter: 0.2%; Sfp inh: 89.1µM*

Screening data: PubChem, National Center for Advancing Translational Sciences (NCATS)
